Patent US5250538A, “Indole derivatives and their use” (Novo Nordisk A/S, priority 1990, dated 1993)

The chains behind the UniProt entries cited, without tags or fusion partners.
UniProt P28564, whole entry: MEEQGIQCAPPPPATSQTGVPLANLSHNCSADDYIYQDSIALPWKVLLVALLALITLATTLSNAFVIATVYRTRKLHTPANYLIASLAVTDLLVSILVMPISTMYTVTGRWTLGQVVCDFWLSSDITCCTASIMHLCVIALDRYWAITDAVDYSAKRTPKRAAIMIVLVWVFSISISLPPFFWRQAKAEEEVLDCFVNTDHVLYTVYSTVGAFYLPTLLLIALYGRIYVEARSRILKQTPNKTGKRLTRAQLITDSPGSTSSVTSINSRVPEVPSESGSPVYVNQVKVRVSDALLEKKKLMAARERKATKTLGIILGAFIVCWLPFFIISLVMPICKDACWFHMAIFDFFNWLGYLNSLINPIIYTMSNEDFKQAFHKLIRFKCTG

Target: T1, 5-HT1B (Rattus norvegicus, UniProt P28564)
T1 construct: from tissue
Test: 5-HT1B receptor binding in vitro (3H-5-HT, 50 nM 8-OH-DPAT included)
Method: Compounds of the general formula (I) were tested for binding to 5-HT receptors and compared with known ligands by the following procedure:
Rat brain tissue (as specified in the table hereinafter) was homogenized using a Polytron homogenizer. The final pellet was resuspended in 125 vol (tissue wet weight) of buffer.
In all assays incubation was carried out for 10 min at 37° C.
Labelling of the 5-HT1B receptor was complicated by the fact that the available ligand ^3 H-5-HT is nonselective.
Detailed conditions for the receptor binding assay in vitro are tabulated below.

IC50: > 1000 nM
SMILES: CC1(C)CC(=O)N(CCCCN2CCN(c3ncccn3)CC2)C(=O)C1 [Gepirone, reference compound]
